US11939340B2, “CDK inhibitors and their use as pharmaceuticals” (Prelude Therapeutics Incorporated, priority 2022, dated 2024)

Amino acid sequences for entries named in this document (tags omitted).
UniProt P11802, whole entry: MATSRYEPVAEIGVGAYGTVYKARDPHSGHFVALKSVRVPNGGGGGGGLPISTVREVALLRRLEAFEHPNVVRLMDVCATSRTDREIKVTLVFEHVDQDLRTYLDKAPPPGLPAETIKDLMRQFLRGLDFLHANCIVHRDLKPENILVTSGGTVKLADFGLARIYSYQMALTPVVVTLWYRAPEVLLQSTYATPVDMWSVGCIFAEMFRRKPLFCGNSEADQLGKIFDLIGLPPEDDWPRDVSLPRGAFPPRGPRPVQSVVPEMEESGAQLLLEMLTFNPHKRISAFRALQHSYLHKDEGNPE
UniProt P24385, whole entry partner: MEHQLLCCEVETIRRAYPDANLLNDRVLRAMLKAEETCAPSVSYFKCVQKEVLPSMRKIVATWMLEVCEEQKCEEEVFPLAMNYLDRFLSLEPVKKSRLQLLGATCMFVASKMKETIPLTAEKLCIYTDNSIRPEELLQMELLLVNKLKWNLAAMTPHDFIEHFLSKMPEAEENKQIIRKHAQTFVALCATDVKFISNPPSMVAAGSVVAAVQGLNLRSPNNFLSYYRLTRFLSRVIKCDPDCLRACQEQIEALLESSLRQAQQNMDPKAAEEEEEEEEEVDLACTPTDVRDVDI

What was measured:
CDK2/Cyclin E2 = CDK2/Cyclin E2 (Homo sapiens, UniProt P24941); test: CDK2/CyclinE2 Enzymatic Activity Assay (TR-FRET); conditions: read-out: CDK2_El IC50, CDK2/CyclinE2 1 nM, ATP 1 mM
Experimental: CDK2/CyclinE2 Enzymatic Activity Assay
The inhibitory activity of compounds was evaluated in vitro using TR-FRET assay with white 384-well low volume microplate (Greiner Bio-One). CDK2/Cyclin E2 catalyzed phosphorylation of peptide in the presence and absence of compounds was measured and used in IC50 determination. Recombinant protein complex CDK2/Cyclin E2, expressed from insect cell, was purchased from ProQinase. Testing compounds were dissolved in DMSO at 1 mM and tested in 9-dose IC50 mode. The reaction mixture was prepared by mixing CDK2/CyclinE2 (1 nM final), ULight-4E-BP1 (50 nM final, Perkinelmer, TRF0128-D), and ATP (1 mM final) in assay buffer (20 mM of HEPES pH 7.4, 1 mM of EGTA, 0.05% BSA, 0.005% Tween 20, and 1 mM TCEP). The compound of interest in DMSO was added to each well in 3-fold serial dilution by dispenser (TECAN D300E) to make a 9.9 μL of reaction mixture. After 20 minutes preincubation at room temperature, 0.1 μL MgCl2 (10 mM final) was added to initiate the reaction. Following a 45 minute incubation at 37° C., the reaction was stopped by addition of 2 μL of quenching buffer consisting of Lance detection buffer (Perkinelmer CR97-100C), LANCE Ultra Europium-anti-P-4E-BP1 (Perkinelmer, TRF0216-D), EDTA, and incubate at room temperature for additional 60 minutes in the dark. The reaction signal was measured by Envision multimode plate reader (PerkinElmer, 2102-0010). IC50 values were determined by fitting the data to the standard 4 parameters with Hill Slope using GraphPad Prism software.

CDK4/Cyclin D1 = CDK4/Cyclin D1 (Homo sapiens, UniProt P11802); test: CDK4/CyclinD1 Enzymatic Activity Assay (TR-FRET); conditions: read-out: CDK4_D1 IC50, CDK4/CyclinD1 1 nM, ATP 2 mM
Experimental: CDK4/CyclinD1 Enzymatic Activity Assay
The inhibitory activity of compounds was evaluated in vitro using TR-FRET assay with white 384-well low volume microplate (Greiner Bio-One). CDK4/Cyclin D1 catalyzed phosphorylation of peptide in the presence and absence of compounds was measured and used in IC50 determination. Recombinant protein complex CDK4/Cyclin D1, expressed from insect cell, was purchased from ProQinase. Testing compounds were dissolved in DMSO at 1 mM and tested in 9-dose IC50 mode. The reaction mixture was prepared by mixing CDK4/CyclinD1 (1 nM final), ULight-4E-BP1 (100 nM final, Perkinelmer, TRF0128-D), and ATP (2 mM final) in assay buffer (20 mM of HEPES pH 7.4, 1 mM of EGTA, 0.05% BSA, 0.005% Tween 20, and 1 mM TCEP). The compound of interest in DMSO was added to each well in 3-fold serial dilution by the dispenser (TECAN D300E) to make a 9.9 μL of reaction mixture. After 20 minutes preincubation at room temperature, 0.1 μL MgCl2 (10 mM final) was added to initiate the reaction. Following a 45 minute incubation at 37° C., the reaction was stopped by addition of 2 μL of quenching buffer consisting of Lance detection buffer (Perkinelmer CR97-100C), LANCE Ultra Europium-anti-P-4E-BP1 (Perkinelmer, TRF0216-D), EDTA, and incubated at room temperature for additional 60 minutes in dark. The reaction signal was measured by Envision multimode plate reader (PerkinElmer, 2102-0010). IC50 values were determined by fitting the data to the standard 4 parameters with Hill Slope using GraphPad Prism software.

pRB in OVCAR3 cells = test: pRB ICW Assay in OVCAR3 Cells; conditions: read-out: OVCAR3 p-RB ICW IC50, incubated with compound for 2 hours
Experimental: pRB ICW Assay in OVCAR3 Cells
OVCAR3 cells were maintained in RPMI (Corning, Catalog #: 10-040-CV) supplemented with 10% v/v FBS (Gibco, Catalog #: 26140-079), 1% v/v Penicillin Streptomycin (Gibco, Catalog #15140-122.) OVCAR3 cells grown at log phase were trypsinized, counted, and resuspended in fresh medium to reach a final density of 6.7e4 cells/mL and 75 μL of culture were dispensed into a 384-well plate (Falcon, cat #353962) using a Multidrop Combi dispenser (Thermo Scientific). The next day, compounds were dispensed as a 9-point, ½ log serial dilution using a Tecan digital dispenser (D300e), and cells were incubated with compound for 2 hours in a humidified incubator at 37° C. A reference compound at a final concentration of 10 μM was used as a control for maximum inhibition. Each compound was tested in duplicates for each experiment. At the end of the incubation, 25 μL of 16% paraformaldehyde (Electron Microscopy, cat #15710) was slowly added to each well and the plate was incubated at room temperature (RT) for 30 minutes to fix cells. Cells were then permeabilized by incubating with 50 μL/well of wash buffer (lx PBS with 0.1% Triton X-100) 5×5 minutes, followed by 1 hour blocking with 30 μL/well of Odyssey blocking buffer (Li—COR, cat #927-40000), at RT. Anti-phosphor RB antibody (Cell signaling 8516S) was diluted 1:1000 in Odyssey blocking buffer and 20 μL was added to all wells and incubated overnight in 4° C. with gently rocking. The next day, cells were washed 5×5 min with 50 μL/well of wash buffer, followed with 1 hour incubation with secondary antibody and DRAQ5 diluted in Odyssey blocking buffer (1:500 dilution for secondary antibody and 1:2000 dilution for DRAQ5), 5×5 min washes, and one last wash with water. Plates were dried in 37° C. oven for 5 minutes and scanned using Li—COR Odyssey CLx imaging system to acquire intensities at 700 and 800 nm channels.

IC50 (CDK2/Cyclin E2) [nM]	IC50 (CDK4/Cyclin D1) [nM]	IC50 (pRB in OVCAR3 cells) [nM]	SMILES
< 100	< 100	100 to 500	CC12CCCCN1C(=O)c1cc(-c3nc(NC4CCN(S(C)(=O)=O)CC4)ncc3F)sc12 (single isomer, unassigned) [8 or 7]
< 100	< 100	100 to 500	CC(C)C12CCCN1C(=O)c1cc(-c3nc(NC4CCN(S(C)(=O)=O)CC4)ncc3C(F)(F)F)sc12 (single isomer, unassigned)
< 100	< 100	100 to 500	CC(C)C12CCCCN1C(=O)c1cc(-c3nc(NC4CCN(S(C)(=O)=O)CC4)ncc3C(F)(F)F)sc12 (single isomer, unassigned)
< 100	< 100	< 100	CC12CCCCN1C(=O)c1cc(-c3nc(NC4CCN(S(C)(=O)=O)CC4)ncc3F)sc12 (single isomer, unassigned) [7 or 8]
